Data: paper PMC6222802 (Molecules : A Journal of Synthetic Chemistry and Natural …, 2018)
This is a selection: effects in other tests are not listed, and their absence says nothing.

Tests used:
H22 cells = assay: MTT anti-proliferation assay, H22 cells; conditions: read-out: IC50, H22, 48 h
S180 cells = assay: MTT anti-proliferation assay, S180 cells; conditions: read-out: IC50, S180, 48 h
SMMC-7721 cells = assay: MTT anti-proliferation assay, SMMC-7721 cells; conditions: read-out: IC50, SMMC-7721, 48 h
LoVo cells = assay: MTT anti-proliferation assay, LoVo cells; conditions: read-out: IC50, LoVo, 48 h
K562 cells = assay: MTT anti-proliferation assay, K562 cells; conditions: read-out: IC50, K562, 48 h
MCF-7 cells = assay: MTT anti-proliferation assay, MCF-7 cells; conditions: read-out: IC50, MCF-7, 48 h
L929 cells = assay: MTT assay, non-cancerous L929 cells; conditions: read-out: IC50, L929, 48 h, normal cell

In the case of `O=P(Cl)(Cl)N(CCCl)CCCl`, the IC50 (H22 cells) is reported as 11.7 µM, the IC50 (S180 cells) is reported as 12.1 µM and the IC50 (SMMC-7721 cells) is reported as 48.8 µM. For the same compound, the IC50 (LoVo cells) was 84 µM, the IC50 (K562 cells) was 48.8 µM and the IC50 (MCF-7 cells) was 111 µM. The IC50 (L929 cells) was 52.8 µM.
